Data as given in patent US20090081314A1, “Glycemic Control, Diabetes Treatment, and Other Treatments with Acetyl Cholinesterase Inhibitors” (priority 2007, published 2009).
“Also recorded” adds a separate entry of the source.

Experiment: Side effects of acetyl cholinesterase inhibitor treatment in patients (case studies)

SMILES: COc1cc2c(cc1OC)C(=O)C(CC1CCN(Cc3ccccc3)CC1)C2 (stereo not shown) [donepezil]
- side effects of treatment (individual patient, donepezil 5 mg daily, increased to 10 mg daily): no untoward side effects; also recorded: no negative side effects
- side effects of treatment (individual patient, donepezil 5 mg orally daily): no adverse side effects were noted; also recorded: no negative side effects; also recorded: without any negative side effects; also recorded: no untoward side effects; also recorded: tolerated the donepezil well; also recorded: no fevers, infections or untoward side effects; also recorded: no symptoms of diarrhea, nausea or polyuria; also recorded: with adverse side effects
- side effects of treatment (patient nineteen, donepezil 2.5 mg three times a week): no untoward side effects
- episodes of hypoglycemia (patient twelve, donepezil 5 mg orally daily with oral hypoglycemic agents): no episodes of hypoglycemia
